What was measured:
[1] = biological target: CK1ε, which is more than 97% identical to CK1ε in their kinase domains (Homo sapiens, UniProt P48730); conditions: cell free, 1 μM
[2] = biological target: PI3Kβ (Homo sapiens, UniProt P42338); conditions: selectivity of δ over β, cell free
[3] = biological target: CK1ε (Homo sapiens, UniProt P49674); assay: Kinome profiling (Reaction Biology, radioisotope filter binding); conditions: read-out: inhibition of kinase activity of CK1 epsilon, cell free, 1 μM
[4] = biological target: PI3Kγ (Homo sapiens, UniProt P48736); conditions: selectivity of δ over γ, cell free
[5] = biological target: PI3Kα (Homo sapiens, UniProt P42336); conditions: selectivity of δ over α, cell free

Chains of the proteins cited; added tags and fusions are not shown. Lines headed by an entry give the natural chain unless they say otherwise; changes in a name come on top.
UniProt P48730: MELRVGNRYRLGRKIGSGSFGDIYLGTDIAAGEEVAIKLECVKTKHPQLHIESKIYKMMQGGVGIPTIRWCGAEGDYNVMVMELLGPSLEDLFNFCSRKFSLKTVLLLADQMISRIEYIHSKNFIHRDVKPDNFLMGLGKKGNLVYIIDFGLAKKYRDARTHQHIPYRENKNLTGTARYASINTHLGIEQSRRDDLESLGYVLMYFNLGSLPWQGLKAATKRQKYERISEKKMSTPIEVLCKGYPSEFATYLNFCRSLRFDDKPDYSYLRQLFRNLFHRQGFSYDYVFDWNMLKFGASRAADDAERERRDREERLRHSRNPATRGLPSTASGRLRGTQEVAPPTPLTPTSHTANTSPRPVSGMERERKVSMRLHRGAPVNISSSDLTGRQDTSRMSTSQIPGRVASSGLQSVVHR
UniProt P42338: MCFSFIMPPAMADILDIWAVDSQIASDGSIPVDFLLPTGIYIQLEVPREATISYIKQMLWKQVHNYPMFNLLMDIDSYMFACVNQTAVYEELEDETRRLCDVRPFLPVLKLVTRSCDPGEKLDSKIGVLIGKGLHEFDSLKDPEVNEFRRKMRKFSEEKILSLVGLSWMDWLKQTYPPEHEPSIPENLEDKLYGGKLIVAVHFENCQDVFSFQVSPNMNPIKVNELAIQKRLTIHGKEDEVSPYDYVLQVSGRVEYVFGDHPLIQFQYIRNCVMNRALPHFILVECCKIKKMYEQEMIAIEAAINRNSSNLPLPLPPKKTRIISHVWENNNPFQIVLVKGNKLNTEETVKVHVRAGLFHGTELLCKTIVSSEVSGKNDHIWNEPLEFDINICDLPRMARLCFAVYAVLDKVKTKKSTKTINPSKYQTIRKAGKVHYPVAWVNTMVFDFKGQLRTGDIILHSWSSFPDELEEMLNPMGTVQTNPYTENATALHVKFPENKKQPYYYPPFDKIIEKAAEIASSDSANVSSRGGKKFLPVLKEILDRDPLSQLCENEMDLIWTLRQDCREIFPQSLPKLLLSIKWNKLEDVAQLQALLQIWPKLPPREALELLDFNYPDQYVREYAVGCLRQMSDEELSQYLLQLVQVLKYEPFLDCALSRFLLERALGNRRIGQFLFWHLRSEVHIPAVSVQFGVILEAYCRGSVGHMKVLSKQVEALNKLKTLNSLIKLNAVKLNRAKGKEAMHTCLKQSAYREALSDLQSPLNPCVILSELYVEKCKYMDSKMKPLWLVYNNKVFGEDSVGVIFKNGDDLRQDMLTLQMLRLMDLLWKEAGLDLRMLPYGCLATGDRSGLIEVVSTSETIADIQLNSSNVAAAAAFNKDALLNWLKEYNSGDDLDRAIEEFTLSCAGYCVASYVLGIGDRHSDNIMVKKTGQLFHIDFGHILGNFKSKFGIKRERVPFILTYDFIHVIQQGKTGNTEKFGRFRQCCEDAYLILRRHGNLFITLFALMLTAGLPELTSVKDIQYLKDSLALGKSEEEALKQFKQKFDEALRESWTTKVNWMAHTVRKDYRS
UniProt P49674: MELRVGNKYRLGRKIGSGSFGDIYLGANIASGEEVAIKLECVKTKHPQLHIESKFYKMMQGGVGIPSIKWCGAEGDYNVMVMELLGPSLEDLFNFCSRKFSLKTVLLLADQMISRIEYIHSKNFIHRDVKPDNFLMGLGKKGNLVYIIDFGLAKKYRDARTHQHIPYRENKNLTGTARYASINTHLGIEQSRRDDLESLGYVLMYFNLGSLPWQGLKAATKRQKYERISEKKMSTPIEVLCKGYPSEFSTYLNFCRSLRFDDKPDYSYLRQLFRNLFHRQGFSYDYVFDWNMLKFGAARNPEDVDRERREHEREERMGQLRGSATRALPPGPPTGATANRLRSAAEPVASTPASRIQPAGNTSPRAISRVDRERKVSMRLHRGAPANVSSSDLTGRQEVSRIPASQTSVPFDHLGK
UniProt P48736: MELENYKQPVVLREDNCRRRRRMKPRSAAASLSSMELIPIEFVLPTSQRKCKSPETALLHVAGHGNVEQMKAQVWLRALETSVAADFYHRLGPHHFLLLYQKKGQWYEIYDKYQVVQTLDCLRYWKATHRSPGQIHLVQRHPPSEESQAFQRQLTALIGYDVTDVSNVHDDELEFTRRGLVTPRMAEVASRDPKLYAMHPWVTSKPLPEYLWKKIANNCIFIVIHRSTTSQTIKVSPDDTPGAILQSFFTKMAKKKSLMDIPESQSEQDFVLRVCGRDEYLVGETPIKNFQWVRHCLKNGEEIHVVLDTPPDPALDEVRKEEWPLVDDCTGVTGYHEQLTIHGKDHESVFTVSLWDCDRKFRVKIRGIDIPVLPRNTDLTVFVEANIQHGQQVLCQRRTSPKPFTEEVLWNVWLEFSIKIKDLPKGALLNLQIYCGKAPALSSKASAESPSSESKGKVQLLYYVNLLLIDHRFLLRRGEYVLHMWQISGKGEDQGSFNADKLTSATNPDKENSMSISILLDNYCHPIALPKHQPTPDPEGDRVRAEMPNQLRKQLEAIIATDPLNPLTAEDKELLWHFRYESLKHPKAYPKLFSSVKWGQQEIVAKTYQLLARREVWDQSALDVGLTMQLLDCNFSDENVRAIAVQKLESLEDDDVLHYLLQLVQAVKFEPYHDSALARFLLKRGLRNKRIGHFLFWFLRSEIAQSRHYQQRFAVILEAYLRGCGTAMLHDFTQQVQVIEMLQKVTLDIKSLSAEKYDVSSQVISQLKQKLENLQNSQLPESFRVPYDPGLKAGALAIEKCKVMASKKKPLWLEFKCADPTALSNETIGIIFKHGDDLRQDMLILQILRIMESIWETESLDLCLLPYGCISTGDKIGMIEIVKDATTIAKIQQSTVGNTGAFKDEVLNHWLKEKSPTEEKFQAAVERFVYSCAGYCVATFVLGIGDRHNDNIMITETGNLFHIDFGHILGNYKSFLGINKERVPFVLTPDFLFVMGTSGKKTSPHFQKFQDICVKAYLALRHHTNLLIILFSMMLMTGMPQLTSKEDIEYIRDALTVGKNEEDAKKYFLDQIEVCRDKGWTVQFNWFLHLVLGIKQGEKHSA
UniProt P42336, whole entry: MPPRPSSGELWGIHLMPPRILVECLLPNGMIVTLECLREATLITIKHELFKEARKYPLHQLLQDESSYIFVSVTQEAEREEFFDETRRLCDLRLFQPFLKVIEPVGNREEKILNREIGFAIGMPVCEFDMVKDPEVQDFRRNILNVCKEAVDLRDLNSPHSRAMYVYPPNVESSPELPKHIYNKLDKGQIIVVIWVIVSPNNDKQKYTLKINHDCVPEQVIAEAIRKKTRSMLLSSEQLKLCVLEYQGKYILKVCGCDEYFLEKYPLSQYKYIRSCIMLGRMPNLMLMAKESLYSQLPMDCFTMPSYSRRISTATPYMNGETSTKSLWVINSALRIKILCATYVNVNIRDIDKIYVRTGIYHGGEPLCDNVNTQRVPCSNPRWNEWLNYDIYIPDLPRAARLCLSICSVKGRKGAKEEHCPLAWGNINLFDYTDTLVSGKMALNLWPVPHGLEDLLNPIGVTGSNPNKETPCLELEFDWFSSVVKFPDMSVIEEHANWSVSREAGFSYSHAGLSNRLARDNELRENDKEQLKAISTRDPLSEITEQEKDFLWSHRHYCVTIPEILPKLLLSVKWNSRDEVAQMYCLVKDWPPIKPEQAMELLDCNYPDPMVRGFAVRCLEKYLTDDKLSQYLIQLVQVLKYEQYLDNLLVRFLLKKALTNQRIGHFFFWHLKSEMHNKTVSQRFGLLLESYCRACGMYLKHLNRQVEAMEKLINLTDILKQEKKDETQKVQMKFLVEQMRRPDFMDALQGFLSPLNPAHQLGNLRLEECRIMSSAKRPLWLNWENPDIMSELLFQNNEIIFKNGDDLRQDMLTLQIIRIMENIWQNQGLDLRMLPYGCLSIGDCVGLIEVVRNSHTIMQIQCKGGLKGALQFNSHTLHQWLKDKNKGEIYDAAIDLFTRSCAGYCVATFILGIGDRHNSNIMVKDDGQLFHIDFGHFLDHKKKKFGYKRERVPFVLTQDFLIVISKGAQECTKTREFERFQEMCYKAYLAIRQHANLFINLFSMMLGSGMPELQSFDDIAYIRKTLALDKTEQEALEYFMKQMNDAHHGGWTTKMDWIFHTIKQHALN

## CC(C)Oc1ccc(-c2nn([C@@H](C)c3oc4ccc(F)cc4c(=O)c3-c3cccc(F)c3)c3ncnc(N)c23)cc1F [TGR-1202]
[1]
  inhibition of kinase activity: not inhibited
[2]
  IC50(PI3Kβ)/IC50(PI3Kδ): 50 times
[3]
  inhibition at 1 µM: > 60%
[4]
  IC50(PI3Kγ)/IC50(PI3Kδ): 48 times
[5]
  IC50(PI3Kα)/IC50(PI3Kδ): 10000 times

— patent US20190070183A1, “Targeting Casein Kinase-1 and PI3K/AKT/mTOR Pathways for Treatment of c-Myc-Overexpressing Cancers, Organ Transplant Associated Complications and Autoimmune Diseases” (The Trustees of Columbia University in the City of New York, priority 2015, published 2019)
